Source: ChEMBL document CHEMBL4138311, “Antitumorigenic Properties of Omega-3 Endocannabinoid Epoxides” (J Med Chem, 2018)

System: MG-63
Test: Antimigratory activity in human MG63 cells at 5 uM measured at 6 to 10 hrs by wound-healing assay relative to control
Type: functional

CC/C=C\C/C=C\C/C=C\CC1OC1C/C=C\C/C=C\CCC(=O)NCCO (stereo unspecified)
fold change (FC): 1 - 2
